Earlier results, collected in publication PMC11346437.

Sequences of proteins named here, by UniProt entry; tags and fusion partners are left off.
UniProt Q07812, whole entry: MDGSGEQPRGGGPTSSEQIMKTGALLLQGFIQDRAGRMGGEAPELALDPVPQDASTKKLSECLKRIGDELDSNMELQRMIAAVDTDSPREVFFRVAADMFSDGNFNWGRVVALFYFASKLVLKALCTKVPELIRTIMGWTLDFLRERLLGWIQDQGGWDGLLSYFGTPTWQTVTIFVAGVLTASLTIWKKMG
UniProt Q07817, whole entry: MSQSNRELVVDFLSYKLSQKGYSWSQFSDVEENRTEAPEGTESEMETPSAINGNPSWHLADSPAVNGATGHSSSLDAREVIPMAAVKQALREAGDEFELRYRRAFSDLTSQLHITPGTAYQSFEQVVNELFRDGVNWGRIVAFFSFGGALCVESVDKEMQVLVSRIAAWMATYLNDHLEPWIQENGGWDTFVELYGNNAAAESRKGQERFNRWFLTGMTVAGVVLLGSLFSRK
UniProt O43521, whole entry: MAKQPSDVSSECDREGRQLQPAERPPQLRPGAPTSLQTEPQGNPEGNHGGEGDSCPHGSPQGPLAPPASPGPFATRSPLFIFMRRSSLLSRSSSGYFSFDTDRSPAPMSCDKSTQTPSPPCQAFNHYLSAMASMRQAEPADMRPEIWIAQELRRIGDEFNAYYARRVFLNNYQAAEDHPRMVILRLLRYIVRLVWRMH

Key:
Bax (Homo sapiens) = Bax (Homo sapiens) (UniProt Q07812)
Bcl-XL (Homo sapiens) = Bcl-XL (Homo sapiens) (UniProt Q07817)

Kd (Bax (Homo sapiens)): 60 nM | Kd (Bcl-XL (Homo sapiens)): 3 nM
Substance: Bim (from UniProt O43521)
